The numbers were not newly measured in patent US9539445B2, “Type of anion-containing calcium phosphate compound for dental remineralization” (TAIPEI MEDICAL UNIVERSITY, priority 2010, dated 2017), which cites them from elsewhere.

For this data set the following is noted: in water; materials known in the art for dental remineralization.

On to calcium lactophosphate, for which the solubility is recorded as 0.3-1 g/100 ml water. Consider calcium glycerophosphate, for which the solubility is 2 g/100 ml water.
